Laboratory results as given in patent publication US6509163B1, “Methods of screening modulators of mammalian P2X7 purinergic receptors” (Glaxo Group Limited, priority 1997, dated 2003).

Protein sequences, listed by entry. Tags and fused reporters are not part of them. Lines headed by an entry give the natural chain unless they say otherwise; changes in a name come on top.
UniProt Q99572: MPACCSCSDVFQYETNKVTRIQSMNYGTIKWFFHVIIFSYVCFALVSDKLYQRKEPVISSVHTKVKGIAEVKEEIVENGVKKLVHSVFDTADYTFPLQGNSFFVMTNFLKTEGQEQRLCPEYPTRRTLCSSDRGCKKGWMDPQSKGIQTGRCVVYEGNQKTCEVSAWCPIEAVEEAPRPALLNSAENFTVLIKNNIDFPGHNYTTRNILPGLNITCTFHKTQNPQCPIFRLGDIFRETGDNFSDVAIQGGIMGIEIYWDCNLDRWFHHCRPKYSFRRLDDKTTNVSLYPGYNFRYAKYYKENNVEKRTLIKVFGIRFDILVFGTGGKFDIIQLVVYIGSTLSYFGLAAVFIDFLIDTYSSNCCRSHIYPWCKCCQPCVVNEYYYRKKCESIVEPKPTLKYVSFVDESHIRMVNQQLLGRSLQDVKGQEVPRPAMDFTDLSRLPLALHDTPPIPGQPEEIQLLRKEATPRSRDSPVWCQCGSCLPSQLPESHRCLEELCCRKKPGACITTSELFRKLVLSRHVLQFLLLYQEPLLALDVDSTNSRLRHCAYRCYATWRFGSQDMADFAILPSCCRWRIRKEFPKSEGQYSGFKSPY

Target: T1, hP2X7 receptor (Homo sapiens, UniProt Q99572)
T1 construct: a clone containing the complete open reading frame of the hP2X7 receptor was constructed; expressed in transfected cells; host or cells: HEK293 (transient), pcDNA3
Assay: Whole-cell recordings in HEK293 cells transiently transfected with hP2X7 receptors (Example 3)
Assay type: cell-based
Details: vs 300 μM BzATP, n=4; read-out: concentration causing half-maximal inhibition of currents
Experimental: Cell culture. HEK293 cells were transiently transfected with cDNA (1 μg/ml) and lipofectin dissolved in Optimem (GIBCO) placed into petri dishes containing four coverslips onto which cells were plated at a density of about 8×10^4/coverslip. Cells were washed 5 h later and normal DMEM applied. Electrophysiological studies or dye uptake measurements were carried out 18-49 h later. For each set of transfections, parallel experiments were performed on HEK cells transfected with cDNA encoding both rP2X7 and hP2X7 receptors.
Electrophysiological experiments. Whole-cell recordings were made using the EPC9 patch-clamp amplifier and Pulse acquisition programs (HEKA, Lambrecht, Germany). Patch pipettes (5-7 MΩ) contained (mM) CsCl or NaCl 154, EGTA 10, HEPES 5. The normal extracellular solution contained (mM) NaCg 147, KCl2, CaCl2 2, MgCl2 1, HEPES 10 and glucose 12, and the “low divalent” solution had no magnesium and 0.3 mM CaCl2. Agonists were delivered by U-tube delivery system; antagonists, when applied, were present in both superfusion and U-tube. Experiments were carried out at room temperature.

Compound: Cc1nc(N=Nc2ccc(S(=O)(=O)O)cc2S(=O)(=O)O)c(COP(=O)(O)O)c(C=O)c1O [PPADS, pyridoxal 5-phosphate-6-azophenyl 2′4′-disulfonic acid]
- IC50: 62 ± 4 µM
